Experimental data reported in patent US20090099157A1, “TETRAHYDRO-PYRAZOLO-PYRIDINE THIOETHER MODULATORS OF CATHEPSIN S” (priority 2007, published 2009).

Chains of the proteins cited; added tags and fusions are not shown. Residues count along the entry.
UniProt P25774, 115-331: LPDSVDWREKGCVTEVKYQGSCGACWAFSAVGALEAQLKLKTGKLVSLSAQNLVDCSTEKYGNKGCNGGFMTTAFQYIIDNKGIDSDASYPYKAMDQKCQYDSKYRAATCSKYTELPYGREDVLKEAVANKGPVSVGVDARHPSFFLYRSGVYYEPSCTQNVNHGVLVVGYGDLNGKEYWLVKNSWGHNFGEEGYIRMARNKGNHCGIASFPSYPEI

biological target: Recombinant human cathepsin S (CatS) (Homo sapiens, UniProt P25774); test: biochemical

Point of comparison: `CN(CCSc1cc(-c2nn(CCCN3CCC(N4CCCC4=O)CC3)c3c2CN(S(C)(=O)=O)CC3)ccc1C(F)(F)F)C1CCCCC1` [Example 27, 1-{1-[3-(3-{3-[2-(Cyclohexyl-methyl-amino)-ethylsulfanyl]-4-trifluoromethyl-phenyl}-5-methanesulfonyl-4,5,6,7-tetrahydro-pyrazolo[4,3-c]pyridin-1-yl)-propyl]-piperidin-4-yl}-pyrrolidin-2-one], IC50 540 nM. Against it:
- CS(=O)(=O)N1CCc2c(c(-c3ccc(C(F)(F)F)c(SCCN4CCC(F)(F)CC4)c3)nn2C[C@@H](O)CN2CC=CCC2)C1 [Example 485, (2S)-1-{3-[3-{[2-(4,4-Difluoropiperidin-1-yl)ethyl]sulfanyl}-4-(trifluoromethyl)phenyl]-5-(methylsulfonyl)-4,5,6,7-tetrahydro-1H-pyrazolo[4,3-c]pyridin-1-yl}-3-(3,6-dihydropyridin-1(2H)-yl)propan-2-ol] — 2.2-fold lower, 250 nM
- CS(=O)(=O)N1CCc2c(c(-c3ccc(C(F)(F)F)c(SCCN4CCCC(F)C4)c3)nn2C[C@@H](O)CN2CCC(c3ccccn3)CC2)C1 (stereo partly drawn) [Example 207, (2S)-1-{3-[3-{[2-(3-Fluoropiperidin-1-yl)ethyl]sulfanyl}-4-(trifluoromethyl)phenyl]-5-(methylsulfonyl)-4,5,6,7-tetrahydro-1H-pyrazolo[4,3-c]pyridin-1-yl}-3-(4-pyridin-2-ylpiperidin-1-yl)propan-2-ol] — 54-fold lower, 10 nM
- CS(=O)(=O)N1CCc2c(c(-c3ccc(Cl)c(SCCOc4ccccc4)c3)nn2CCCN2CCOCC2)C1 [Example 133, 3-[4-Chloro-3-(2-phenoxy-ethylsulfanyl)-phenyl]-5-methanesulfonyl-1-(3-morpholin-4-yl-propyl)-4,5,6,7-tetrahydro-1H-pyrazolo[4,3-c]pyridine] — within 1.5-fold, 600 nM
- CS(=O)(=O)N1CCc2c(c(-c3ccc(C(F)(F)F)c(SCCN4CCOC[C@@H]4CO)c3)nn2CCCN2CCCCC2)C1 [Example 148, {(3S)-4-[2-({5-[5-(Methylsulfonyl)-1-(3-piperidin-1-ylpropyl)-4,5,6,7-tetrahydro-1H-pyrazolo[4,3-c]pyridin-3-yl]-2-(trifluoromethyl)phenyl}sulfanyl)ethyl]morpholin-3-yl}methanol] — 2.6-fold higher, 1420 nM
- Cn1ccnc1C(=O)N1CCc2c(c(-c3ccc(C(F)(F)F)c(SCCN4CCC(F)CC4)c3)nn2C[C@@H](O)CN2CCCCC2)C1 [Example 569, (2S)-1-{3-[3-{[2-(4-Fluoropiperidin-1-yl)ethyl]sulfanyl}-4-(trifluoromethyl)phenyl]-5-[(1-methyl-1H-imidazol-2-yl)carbonyl]-4,5,6,7-tetrahydro-1H-pyrazolo[4,3-c]pyridin-1-yl}-3-piperidin-1-ylpropan-2-ol] — within 1.5-fold, 570 nM
- CS(=O)(=O)NCCSc1cc(-c2nn(CC(O)CN3CCC(C(=O)N4CCCC4)CC3)c3c2CN(S(C)(=O)=O)CC3)ccc1C(F)(F)F (centres unmarked) [Example 771, N-[2-({5-[1-{2-Hydroxy-3-[4-(pyrrolidin-1-ylcarbonyl)piperidin-1-yl]propyl}-5-(methylsulfonyl)-4,5,6,7-tetrahydro-1H-pyrazolo[4,3-c]pyridin-3-yl]-2-(trifluoromethyl)phenyl}sulfanyl)ethyl]methanesulfonamide] — 4.9-fold lower, 110 nM
- C[C@H](O)C(=O)NC1CCN(C[C@H](O)Cn2nc(-c3ccc(C(F)(F)F)c(SCCN4CCC5CCCCC5C4)c3)c3c2CCN(S(C)(=O)=O)C3)CC1 (stereo partly drawn) [Example 861, (2S)-2-Hydroxy-N-{1-[(2S)-2-hydroxy-3-{5-(methylsulfonyl)-3-[3-{[2-(octahydroisoquinolin-2(1H)-yl)ethyl]sulfanyl}-4-(trifluoromethyl)phenyl]-4,5,6,7-tetrahydro-1H-pyrazolo[4,3-c]pyridin-1-yl}propyl]piperidin-4-yl}propanamide] — 15-fold lower, 35 nM
